# Target: T1, mImportin α1 ΔIBB (Mus musculus, UniProt P52293)
# T1 construct: made in house; host or cells: E. coli BL21 (DE3) CodonPlus-RIL
# Assay: Isothermal titration calorimetry (ITC)
# Details: 25 °C, 20 mM Hepes pH 8, 200 mM NaCl, one site binding model
# Protocol: Because the binding affinity of cargo proteins for their carrier is an important factor for efficient nuclear import,26 it was imperative to quantify the dissociation constant (K d) of the HNF1β^DBD with its nuclear import protein (importin α) by isothermal titration calorimetry (ITC; see Figure S4 in the Supporting Information for ITC curve and binding parameters).
# HNF1β protein knockdown levels – Western Blots
# Figure 3. HNF1β protein expression levels 48 and 72 h post-transduction with shRNA knockdown clone 583 and shRNA non-target
# control SHC202 in PEO1, JHOC5, JHOC7, JHOC9, OVISE and SKOV3 lines. For HGSOC line PEO1, JHOC7 protein lysates were
# used as a positive staining control. GAPDH was used as the loading control.
# Cells were plated in a 96-well plate (Corning) and incubated overnight. At each time point the
# medium was removed and 100 μL trichloroacetic acid (TCA) was added. Cells were fixed at 4 °C overnight.
# TCA was removed and plates were washed four times with water. Plates were allowed to dry and were
# subsequently stained with Sulforhodamine B (SRB) stain for 30 min at room temperature. […]
# (pH 10) on a shaker for 10 min. Optical densities (ODs) were read on a PHERAstar FS (BMG Labtech) at […]
# measured by UV-Vis spectroscopy using a Nanodrop (Thermo) and small aliquots of the protein were flash […]
# The Kd of mImportin α1 with the HNF1βDBD was determined by isothermal titration calorimetry (ITC) […]
substance,measurement,value
"HNF1β^DBD: DNA-binding domain of HNF1β (91-310), expressed in E. coli",Kd,625 nM
